Measurements as given in patent US9040533B2, “Oxime-substituted-quinoxaline-type piperidine compounds as ORL-1 modulators” (priority 2012, dated 2015).

Legend:
[1] = molecular target: T1, human opioid receptor-like (ORL-1) (Homo sapiens, UniProt P41146); assay: In vitro ORL-1 receptor binding assay ([3H]-nociceptin displacement); conditions: read-out: ORL-1 Ki [Average ± Std Deviation]
[2] = molecular target: T1, human opioid receptor-like (ORL-1); assay: ORL-1 receptor [35S]GTPγS functional binding assay; type: biochemical; conditions: for EC50: read-out: GTPγS ORL-1 EC50 [mean ± SEM]

SMILES	Ki [1]	GTPγS ORL-1 Emax [mean ± SEM] [2]	EC50 [2]
CC(C)ON=C(CCC(=O)O)c1nc2ccccc2n([C@H]2C[C@H]3CCC[C@@H](C2)N3C2CC3CCCC(C3)C2)c1=O (some centres unmarked)	26.8 nM	39.33 ± 2.4%	5.2 nM
CON=C(CCC(=O)O)c1nc2ccccc2n([C@H]2C[C@H]3CCC[C@@H](C2)N3C2CC3CCCC(C3)C2)c1=O (stereo partly drawn) [Compound 2, 4-[4-((1R,3R)—(S)-9-bicyclo[3.3.1]non-3-yl-9-aza-bicyclo[3.3.1]non-3-yl)-3-oxo-3,4-dihydro-quinoxalin-2-yl]-4-methoxyimino-butyric acid]	9.34 nM	19 ± 4%	19.5 nM
O=C(O)CCC(=NOCCO)c1nc2ccccc2n([C@H]2C[C@H]3CCC[C@@H](C2)N3C2CC3CCCC(C3)C2)c1=O (stereo partly drawn) [Compound 3, 4-[4-((1R,3R)—(S)-9-Bicyclo[3.3.1]non-3-yl-9-aza-bicyclo[3.3.1]non-3-yl)-3-oxo-3,4-dihydro-quinoxalin-2-yl]-4-(2-hydroxy-ethoxyimino)-butyric acid]	18.7 nM	20.6 ± 1.2%	32.2 nM
O=C(O)CCC(=NO)c1nc2ccccc2n([C@H]2C[C@H]3CCC[C@@H](C2)N3C2CC3CCCC(C3)C2)c1=O (stereo partly drawn) [Compound 7, 4-[4-((1R,3R)—(S)-9-bicyclo[3.3.1]non-3-yl-9-aza-bicyclo[3.3.1]non-3-yl)-3-oxo-3,4-dihydro-quinoxalin-2-yl]-4-hydroxyimino-butyric acid]	5.64 nM	–	–
CO/N=C(\CCC(=O)O)c1nc2ccccc2n([C@H]2C[C@H]3CCC[C@@H](C2)N3C2CCCCCCCCC2)c1=O [Compound 9, 4-[4-((1R,3R,7S)-9-cyclodecyl-9-aza-bicyclo[3.3.1]non-3-yl)-3-oxo-3,4-dihydro-quinoxalin-2-yl]-4-methoxyimino-butyric acid]	8.73 nM	117.7 ± 4.2%	64 nM
CO/N=C(\CCC(=O)O)c1nc2ccccc2n([C@H]2C[C@H]3CCC[C@@H](C2)N3C2CCCCCCCC2)c1=O [Compound 10, 4-[4-((1R,3R,7S)-9-cyclononyl-9-aza-bicyclo[3.3.1]non-3-yl)-3-oxo-3,4-dihydro-quinoxalin-2-yl]-4-methoxyimino-butyric acid]	–	101.7 ± 3.5%	–
CCO/N=C(\CCC(=O)O)c1nc2ccccc2n([C@H]2C[C@H]3CCC[C@@H](C2)N3C2CC3CCCC(C3)C2)c1=O (stereo partly drawn) [Compound 11, 4-[4-((1R,3R,7S)-9-bicyclo[3.3.1]non-3-yl-9-aza-bicyclo[3.3.1]non-3-yl)-3-oxo-3,4-dihydro-quinoxalin-2-yl]-4-ethoxyimino-butyric acid]	26.6 nM	13.3 ± 0.3%	85 nM
CON=C(CCC(=O)O)c1nc2ccccc2n([C@H]2C[C@H]3CC[C@@H](C2)N3C2CC3CCCCC(C3)C2)c1=O (stereo partly drawn) [Compound 12, 4-(4-((1R,3R)-8-(bicyclo[4.3.1]decan-8-yl)-8-azabicyclo[3.2.1]octan-3-yl)-3-oxo-3,4-dihydroquinoxalin-2-yl)-4-(methoxyimino)butanoic acid]	4.48 nM	–	–
CON=C(CCC(=O)O)c1nc2ccccc2n([C@H]2C[C@H]3CC[C@@H](C2)N3C2CC3CCCC(C3)C2)c1=O (stereo partly drawn) [Compound 14, 4-(4-((1R,3R)-8-(bicyclo[3.3.1]nonan-3-yl)-8-azabicyclo[3.2.1]octan-3-yl)-3-oxo-3,4-dihydroquinoxalin-2-yl)-4-(methoxyimino)butanoic acid]	–	37.3 ± 0.3%	–
C/C(=N\OCC(=O)O)c1nc2ccccc2n([C@H]2C[C@H]3CCC[C@@H](C2)N3C2CC3CCCC(C3)C2)c1=O (some centres unmarked) [Compound 16]	25.7 nM	23.33 ± 2.96%	48.5 nM
O=C(O)CCC(=NO)c1nc2ccccc2n([C@H]2C[C@H]3CCC[C@@H](C2)N3C2CCCCCCCCC2)c1=O [Compound 18]	11.3 nM	106.67 ± 5.78%	77.8 nM
C/C(=N\OCC(=O)O)c1nc2ccccc2n([C@H]2C[C@H]3CCC[C@@H](C2)N3C2CCCCCCCCC2)c1=O [Compound 21]	–	108 ± 1.73%	–
CCN(CC)CCO/N=C(\CCC(=O)O)c1nc2ccccc2n(C2C[C@H]3CCC[C@@H](C2)N3C2C[C@@H]3C[C@@H](C)C[C@H](C2)C3)c1=O (some centres unmarked) [Compound 27]	3.09 nM	24 ± 0.71%	4.97 nM
CC1CC2CC(C1)CC(N1[C@@H]3CCC[C@H]1C[C@@H](n1c(=O)c(/C(CCC(=O)O)=N/OCCN(C)C)nc4ccccc41)C3)C2 (some centres unmarked) [Compound 29]	3.33 nM	20.5 ± 1.2%	3.1 nM
CCON=C(C(=O)O)c1nc2ccccc2n([C@H]2C[C@H]3CCC[C@@H](C2)N3C2CC3CCCCC(C3)C2)c1=O (stereo partly drawn) [Compound 32, 2-(4-((1R,3R)-9-(bicyclo[4.3.1]decan-8-yl)-9-azabicyclo[3.3.1]nonan-3-yl)-3-oxo-3,4-dihydroquinoxalin-2-yl)-2-(ethoxyimino)acetic acid]	1.64 nM	82 ± 8%	16.6 nM
NC(=O)/C(=N\OCC(=O)O)c1nc2ccccc2n([C@H]2C[C@H]3CCC[C@@H](C2)N3C2CC3CCCC(C3)C2)c1=O (some centres unmarked) [Compound 40]	–	34.7 ± 3.8%	–
CNC(=O)CCC(=NOCC(=O)O)c1nc2ccccc2n([C@H]2C[C@H]3CCC[C@@H](C2)N3C2CC3CCCC(C3)C2)c1=O (stereo partly drawn) [Compound 42, 2-(((1-(4-((1R,1′R,3r,3′R,5S,5′S)-[3,9′-bi(9′-azabicyclo[3.3.1]nonan)]-3′-yl)-3-oxo-3,4-dihydroquinoxalin-2-yl)-4-(methylamino)-4-oxobutylidene)amino)oxy)acetic acid]	33.6 nM	–	–
NC(=O)CCC(=NOCC(=O)O)c1nc2ccccc2n([C@H]2C[C@H]3CCC[C@@H](C2)N3C2CC3CCCC(C3)C2)c1=O (some centres unmarked) [Compound 44]	22.8 nM	–	–
NC(=O)CO/N=C(\C(=O)O)c1nc2ccccc2n([C@H]2C[C@H]3CCC[C@@H](C2)N3C2CC3CCCCC(C3)C2)c1=O (stereo partly drawn) [Compound 45, (Z)-2-(2-amino-2-oxoethoxyimino)-2-(4-((1R,3R)-9-(bicyclo[4.3.1]decan-8-yl)-9-azabicyclo[3.3.1]nonan-3-yl)-3-oxo-3,4-dihydroquinoxalin-2-yl)acetic acid]	0.11 nM	81 ± 5%	2.17 nM
CON=C(CCC(=O)O)c1nc2ccccc2n([C@H]2C[C@H]3COC[C@@H](C2)N3C2CC3CCCCC(C3)C2)c1=O (some centres unmarked) [Compound 48]	–	44 ± 5%	–
CN(C)C(=O)C(=NOCC(=O)O)c1nc2ccccc2n([C@H]2C[C@H]3CCC[C@@H](C2)N3C2CC3CCCC(C3)C2)c1=O (some centres unmarked) [Compound 51]	22.9 nM	–	–
COCCO/N=C(\CCC(=O)O)c1nc2ccccc2n([C@H]2C[C@H]3CCC[C@@H](C2)N3C2CC3CCCCC(C3)C2)c1=O (some centres unmarked) [Compound 56]	3.1 nM	–	–
CC(C)(ON=C(C(N)=O)c1nc2ccccc2n([C@H]2C[C@H]3CCC[C@@H](C2)N3C2CC3CCCC(C3)C2)c1=O)C(=O)O (some centres unmarked) [Compound 57]	13.1 nM	–	–
CNC(=O)CCC(=NOCC(=O)O)c1nc2ccccc2n([C@H]2C[C@H]3CCC[C@@H](C2)N3C2CC3CCCCC(C3)C2)c1=O (some centres unmarked) [Compound 58]	4.67 nM	–	–
NC(=O)CCC(=NOCC(=O)O)c1nc2ccccc2n([C@H]2C[C@H]3CCC[C@@H](C2)N3C2CC3CCCCC(C3)C2)c1=O (some centres unmarked) [Compound 59]	4.74 nM	–	–
